Only a part is listed here, and it is no random draw. Calls of active or inactive are those of the source.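 Rule for the calls: active = inhibition above the mean of all tested compounds plus 3 SD, set per campaign (cut at about 14% in these data); inactive = the rest.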

Sequences of proteins named here, by UniProt entry; tags and fusion partners are left off. A change or cut given only in a name is not applied to a line headed by its entry.
UniProt O75608: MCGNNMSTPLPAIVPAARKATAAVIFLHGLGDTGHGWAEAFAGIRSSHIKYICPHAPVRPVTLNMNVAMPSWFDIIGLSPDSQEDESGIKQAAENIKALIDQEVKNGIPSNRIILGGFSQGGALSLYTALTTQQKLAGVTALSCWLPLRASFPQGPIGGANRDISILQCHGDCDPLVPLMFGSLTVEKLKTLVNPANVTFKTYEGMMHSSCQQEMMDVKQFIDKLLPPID

In this experiment the target is Acyl-protein thioesterase 1 (Homo sapiens) (UniProt O75608). Put plainly: LYPLA1 inhibitors, primary screen, counter-screen for PME1 inhibitor project, biochemical, fluorescence polarization, FP-Rh probe ABPP (AID 2174).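 Note: inhibitors block serine hydrolase probe labeling of LYPLA1 so polarization falls; 0% = enzyme with DMSO and 100% = wells lacking LYPLA1.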 The conditions noted are these: recombinant LYPLA1, FP-Rh probe fluorescence polarization; at 5.9 µM; stronger effect = higher value. On the technique in general: The purpose of a counterscreen is to sort out artefacts and off-target activity.
Broadly, the inhibition is the drop in the measured response relative to a control, in per cent. With `c1ccc(-c2nn[nH]n2)c(-c2nn[nH]n2)c1`, the inhibition was inactive: -2.84%.
Under `CN(C)C(=O)Oc1noc2ccccc12` stands inactive: -4.29%; under `Cc1ccccc1OP(=O)(Nc1ccccn1)Oc1ccccc1C`, inactive: -0.74%.
Under `Cc1ccc(OP(=O)(Nc2ccccn2)Oc2ccc(C)cc2)cc1` stands inactive: 1.75%; under `CC(=O)NC(SC(=S)N(CC(C)C)CC(C)C)C(Cl)(Cl)Cl` (stereo not given), inactive: 2.93%.
In the case of `COC(=O)c1cc2c(s1)N=C(c1ccccc1)N(C)P2(=O)N1CCOCC1` (stereo not given), the inhibition was inactive: 1.12%.
Under `CCC(=O)N1C2C3N(C(=O)CC)C1C1N(C(=O)CC)C(C(N1C(=O)CC)N3C(=O)CC)N2C(=O)CC` stands inactive: -3.38%.
For `O=C(OC1CN2CCC1CC2)c1ccccc1` (stereo not given) the value was inactive: -2.01%; for `CN(C(=O)Cc1ccc(Cl)c(Cl)c1)[C@H]1CCCC[C@@H]1N1CCCC1`, inactive: -3.93%; for `Cc1ccc(NP(=O)(Oc2ccccc2F)Oc2ccccc2F)nc1`, inactive: -1.15%.
Under `Cc1cc(SC(NC(=O)c2ccc(F)cc2)C(Cl)(Cl)Cl)ncn1` (stereo not given) stands inactive: -4.62%; under `CCOP(=O)(Nc1ccccc1)OCC`, inactive: 0.31%; under `CC(=O)Nc1ccc([As](=O)(O)O)cc1`, inactive: 4.82%.
For `O=C(O)c1ccccc1[As](=O)(O)O`, the inhibition is inactive: 3.03%.
Consider `O=P(Nc1nc2ccc(Cl)cc2s1)(c1ccccc1)c1ccccc1`, for which the inhibition is inactive: -1.7%.
For `CCN(N=Nc1nonc1N)c1nonc1N` the value was inactive: -2.26%.
For `O=[N+]([O-])c1cc([N+](=O)[O-])c(CCN2CCOCC2)c([N+](=O)[O-])c1` the value was inactive: 1.03%; for `Cc1ccc(OP(=O)(Nc2nccs2)Oc2ccc(C)cc2)cc1`, inactive: -3.48%; for `COc1ccccc1OP(=O)(Nc1ccc(C)cn1)Oc1ccccc1OC`, inactive: 2.05%.
For `CN1CCCC(OC(=O)C(c2ccccc2)c2ccccc2)C1` (stereo not given) the value was inactive: -5.51%.
In the case of `Clc1ccc(Cl)c(NC2=NCC(CBr)S2)c1` (stereo not given), the inhibition is inactive: -4.16%.
Regarding `NC(=O)c1cc([N+](=O)[O-])cc([N+](=O)[O-])c1N`, the inhibition was inactive: -1.04%.
Under `Cc1ccc(N/C(=N/P(=O)(N2CCOCC2)N2CCOCC2)N2CCOCC2)cc1` stands inactive: 0.16%; under `CN(C(=O)Cc1ccc(Cl)c(Cl)c1)[C@H]1CCCC[C@H]1N1CCCC1`, inactive: 0.21%; under `Nc1cc(N)c2nonc2c1[N+](=O)[O-]`, inactive: 1.51%.
Turning to `CC(C)CC(=O)NC(Sc1ccc(Cl)cc1)C(Cl)(Cl)Cl` (stereo not given), the inhibition was inactive: -3.71%.
For `O=C(NC(Sc1ccncn1)C(Cl)(Cl)Cl)c1ccccc1` (stereo not given) the value was inactive: 1.13%.
For `Cc1c2non([O-])c-2c(C)[n+](=O)[n+]1[O-]` the value was inactive: 0.78%; for `Oc1ccccc1CNc1ccccn1`, inactive: 2.45%.
On to `CC(=O)N1C2C3N(C(C)=O)C1C1N(C(C)=O)C(C(N1C(C)=O)N3C(C)=O)N2C(C)=O`, for which the inhibition was inactive: 8.07%.
Under `O=[N+]([O-])c1cccc2n[nH]nc12` stands inactive: 5.3%; under `O=[N+]([O-])c1cc([N+](=O)[O-])c(CCNc2ccccc2)c([N+](=O)[O-])c1`, inactive: 0.49%.
For `CCc1nc2c(n1)c1c(non1O)c1c2no[n+]1[O-]` the value was inactive: 1.31%; for `Cc1ccc(NP(=O)(Oc2ccccc2)Oc2ccccc2)nc1`, inactive: 0.02%; for `COc1ccc(C2=NCC(CBr)S2)cc1` (stereo not given), inactive: 1.83%.
Under `CN(C)C(=O)OCCc1n(C)cc[n+]1C` stands inactive: -4.18%; under `CC(C)=N/N=C(\N)N[N+](=O)[O-]`, inactive: 0.29%; under `CC1CCN(C(=O)Oc2c(Cl)cc(Cl)c3cccnc23)CC1`, inactive: -0.33%.
In the case of `C[N+]1=C2C=CC=CC=C2SC12C([N+](=O)[O-])=CC([N+](=O)[O-])=C[C-]2[N+](=O)[O-]` (stereo not given), the inhibition is inactive: -4.39%.
Under `Nc1ccc([As](=O)(O)c2ccc(N)cc2)cc1` stands inactive: 3.08%; under `CCN(/C(=N/P(=O)(N1CCOCC1)N1CCOCC1)N1CCOCC1)c1ccc(OC)cc1`, inactive: 0.68%; under `O=C(Nc1cc([As](=O)(O)O)ccc1O)c1ccccc1`, inactive: -1.25%.
Under `O=[N+]([O-])c1cccc(NC2=NCC(CBr)S2)c1` (stereo not given) stands inactive: -1.1%.
For `CC(C)(C)C(=O)NC(Sc1ccncn1)C(Cl)(Cl)Cl` (stereo not given) the value was inactive: -0.81%; for `O=[N+]([O-])c1ncn(CCn2ncnc2[N+](=O)[O-])n1`, inactive: -6.53%.

Values taken from PubChem BioAssay AID2174 (The Scripps Research Institute Molecular Screening Center, 2009).
